Assay results published in US8378093B2, “Explosives detection markers” (dated 2013).

Test: Color change and charge-transfer absorption on complexation of guests with tetra-TTF calix[4]pyrrole 2a
Conditions: in either CH2Cl2 or CHCl3

Molecule	color of solution on mixing guest with 2a
O=C1C(F)=C(F)C(=O)C(F)=C1F	brown
O=[N+]([O-])c1cccc([N+](=O)[O-])c1	green
2,4,6-trinitrophenole	green
2,4-dinitrophenole	green
